# Tested on: mouse melanoma cells (B16F10 cell line)
# Test: Melanin inhibition assay
# Type: cell-based
# Conditions: found through experimentation; H3 antagonists
# Method: The assays utilized mouse melanoma cells (B16F10 cell line) which are very efficient at producing melanin. Various inhibitors and enhancers of melanin synthesis were added to the cultured cells along with experimental samples.
# The B16F10 murine melanocytes were seeded into 24-well tissue culture plates and allowed to grow to confluency in complete DMEM. Solutions of H3 antagonists, Arbutin, alpha-Melanocyte Stimulating Hormone (a-MSH), and AA2G were prepared in Complete DMEM. Complete Dulbeco's Modified Eagle Media (DMEM) was used as the untreated control. Additionally, the individual components of the H3 antagonists, Yeast Peptide and Plant Extract, were also analyzed for melanogenic effects. Cells were treated for 72 hours.
# For the inhibition assay, the media was removed from the wells and the monolayers were washed with phosphate buffered saline (PBS). NaOH was added to each well and 100 μL of each solution were added to a 96-well plate in duplicate. The plate was measured by optical density readings at 400 nm.
# As discussed above, skin pigmentation is determined by the amount of melanin in the skin which is produced by dermal melanocytes. […]
compound,measurement,value
N/C(=N/CCc1ccc(I)cc1)SCCCc1cnc[nH]1 [lodophenpropit],suitability to reduce or eliminate pigmentation in a users skin,suitable for use as a by-product in cosmetics to reduce or eliminate pigmentation

# From patent publication US20150272863A1, “H3 ANTAGONIST BY-PRODUCT, ITS MANUFACTURE, AND METHOD OF USING BY-PRODUCT TO REDUCE PIGMENTATION IN SKIN” (Active Concepts, LLC, priority 2014, published 2015)
